Target: human CCR-3 (Homo sapiens, UniProt P51677)
Experiment: binding of [125I]-human eotaxin to human CCR3 (SPA, membranes of RBL-2H3 cells expressing CCR3)
Settings: read-out: IC50 value (inhibition of eotaxin binding to CCR3), 4 hours at room temperature
Experimental: In this assay the effect of the compounds of the present invention on the binding of human eotaxin to human CCR-3 is determined. Recombinant cells expressing human CCR3 are captured by wheatgerm agglutinin (WGA) polyvinyltoluidene (PVT) SPA beads (available from Amersham), through a specific interaction between the WGA and carbohydrate residues of glycoproteins on the surface of the cells. [^125I]-human eotaxin (available from Amersham) binds specifically to CCR3 receptors bringing the [^125I]-human eotaxin in close proximity to the SPA beads. Emitted […] from the [^125I]-human eotaxin excite, by its proximity, the fluorophore in the beads and produce light.
Preparation of Assay Buffer: 5.96 g HEPES and 7.0 g sodium chloride are dissolved in distilled H2O and 1M aqueous CaCl2 (1 ml) and 1M aqueous MgCl2 (5 ml) are added. The pH is adjusted to 7.6 with NaOH and the solution made to a final volume of 1 L using distilled H2O. 5 g of bovine serum albumin and 0.1 g NaN3 are dissolved in the solution and the resulting buffer stored at 4° C. […]
The assay is performed in a final volume of 250 μl per well of an Optiplate™ microplate (ex Canberra Packard). […] The resulting scintillations are counted using a Canberra Packard TopCount™ scintillation counter, each well being counted for 1 minute. […]

Sequences of proteins named here, by UniProt entry; tags and fusion partners are left off.
UniProt P51677, whole entry: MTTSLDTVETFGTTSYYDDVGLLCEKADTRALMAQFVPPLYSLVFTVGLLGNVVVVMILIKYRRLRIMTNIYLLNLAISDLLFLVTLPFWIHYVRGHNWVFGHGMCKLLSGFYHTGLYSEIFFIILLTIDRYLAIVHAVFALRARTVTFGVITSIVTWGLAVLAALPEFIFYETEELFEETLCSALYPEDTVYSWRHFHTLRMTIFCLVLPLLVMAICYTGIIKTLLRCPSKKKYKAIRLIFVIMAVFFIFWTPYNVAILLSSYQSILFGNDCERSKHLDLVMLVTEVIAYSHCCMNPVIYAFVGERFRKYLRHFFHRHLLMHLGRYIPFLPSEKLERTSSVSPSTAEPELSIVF

- IC50: 6 nM
Compound: CCOC(=O)c1ccc(NC(=O)C[n+]2cc(-c3ccc(Cl)cc3)n3c2CCC3)cc1

Source: patent publication US20080207718A1, “Use of Fused Imidazole Derivatives to Mediate Ccr3 Related Conditions” (priority 2005, published 2008)
